High-throughput results from PubChem.
Hits are enriched below; roughly 1.1% of the tested compounds scored in any of these assays.
miR-21 FLuc = miR-21 reporter, rising signal; HeLa miR-21 FLuc reporter, luciferase, 48 h; Potency, µM (titrated, usually from 38.3 µM); AID 2288; 340,000 tested, under 10 active; active = well fitted rising curve with a large enough effect; inconclusive = small, poorly fitted or top-dose-only effect; inactive = no such curve, though single readings can be large or run the other way;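 further: miR-21 action dims this reporter so a rising signal means less miR-21 action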
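Compounds were titrated across several concentrations (up to approximately 40 uM) and incubated 48 hours with HeLa miR-21-FLuc reporter cells (miR-21 target sequence downstream of FLuc, endogenous miR-21). Readout was firefly luciferase luminescence after lytic detection reagent.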
Anesthetic bind = candidate novel general anesthetic via apoferritin binding. Potency, µM (doses to about 77.5 µM), most hits filed as inhibitors. AID 485281. apoferritin/1-aminoanthracene competitive binding, fluorescence. 0.074% of 350,000 active. P02791; note: nearly all actives have a fitted effect of over 20% in size
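Probe: 1-aminoanthracene (50% saturated, PBS). Protein: horse-spleen apoferritin, 10 uM. Incubation: 10 min, room temperature. Detection: 380 nm excitation, 535 nm emission. Analysis: normalized response, four-parameter Hill.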
p53 reactivator = mutant p53 re-activation in reporter cells; Potency, µM (series often up to 92.2 µM), usual class: activators; 0.063% of 320,000 active; H1299 p53-A138V BP100-luciferase reporter, luminescence, 24 h; note: nearly all actives have a fitted effect of over 45% in size
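p53-null H1299 cells stably carrying temperature-sensitive p53-A138V and a BP100-luciferase reporter were pinned with compounds (4-point, 1:5 series) and held 24 hrs at 37 deg C. Luminescence was read 10 min after detection reagent.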
BRCA1 expr up = BRCA1 expression activation | 1.1% of 380,000 active | MCF7-BRCA1-FFLuc reporter, luminescence, 48 h; response scale: scaled: vehicle 0%, 10 µM genistein 100% | Potency, µM (doses to about 46.1 µM), actives largely listed as activators; note: nearly all actives have a fitted effect of over 80% in size
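Compounds are tested at multiple concentrations on MCF7 BRCA1-luciferase reporter cells seeded at 2000 per well; after 48 h, a single luminescence end-point is taken and curves fitted to the normalized data.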
Large screens that a line does not name were inactive. Unless noted, calls come from the whole dose curve; as a rule, active = well fitted curve in the direction sought with a large enough effect; inconclusive = small, poorly fitted or top-dose-only effect, or another doubt; inactive = no such curve, though single readings can be large; an effect the other way counts as inactive or inconclusive.

CC(=O)Nc1ccc(NC(=O)c2csc([C@H]3C[C@H](O)[C@@H](CO)O3)n2)cc1	none (no result: miR-21 FLuc, Anesthetic bind, p53 reactivator)
COc1ccc(-c2noc(-c3csc([C@@H]4C[C@H](O)[C@@H](CO)O4)n3)n2)cc1OC	BRCA1 expr up 14µM (no result: miR-21 FLuc, Anesthetic bind, p53 reactivator)
COc1cc(OC)cc(-c2noc(-c3csc([C@@H]4C[C@H](O)[C@@H](CO)O4)n3)n2)c1	BRCA1 expr up 10µM (no result: miR-21 FLuc, Anesthetic bind, p53 reactivator)
OC[C@H]1O[C@@H](c2nc(-c3ccc(Br)cc3)no2)C[C@@H]1O	BRCA1 expr up 7.9µM (no result: miR-21 FLuc, Anesthetic bind, p53 reactivator)
Cc1ccccc1N1CCN(C2CCCN(C(=O)c3snnc3C)C2)CC1 (stereo unspecified)	none
O=C1NC[C@H](c2ccccc2)N(CCC23CC4CC(CC(C4)C2)C3)C1=O	none (no result: miR-21 FLuc, Anesthetic bind)
Cc1cc2cc(OCc3ccccc3)ccc2n1C	BRCA1 expr up inconclusive
Cc1c(C=O)c2cc(OCc3ccccc3)ccc2n1C	BRCA1 expr up 10µM
O=C(Cc1ccc([N+](=O)[O-])cc1)c1ccc(O)cc1O	BRCA1 expr up 10µM
O=C(Cc1ccc(Br)cc1)c1ccc(O)cc1O	Anesthetic bind inconclusive, p53 reactivator inconclusive, BRCA1 expr up 11µM
CCOC(=O)N1CCN(C(=O)CN2C(=O)NC(C)(c3ccc4ccccc4c3)C2=O)CC1 (stereo unspecified)	none (no result: miR-21 FLuc, Anesthetic bind)
CN(CCOc1ccccc1)S(=O)(=O)c1ccccc1C#N	none (no result: miR-21 FLuc, Anesthetic bind)
COc1ccccc1C1N=C(c2ccccc2C)NO1 (stereo unspecified)	p53 reactivator inconclusive, BRCA1 expr up 13µM
COc1ccccc1C1SCCN1S(C)(=O)=O (stereo unspecified)	Anesthetic bind 11µM
COc1ccc(OC)c(C2SCCN2S(C)(=O)=O)c1 (stereo unspecified)	none
CC1(C(=O)Nc2ccccc2)CCN1C(=O)CCc1ccc(Cl)cc1Cl (stereo unspecified)	none (no result: miR-21 FLuc, Anesthetic bind, p53 reactivator)
CC1=C([N+](=O)[O-])C(c2ccc3c(c2)OCO3)N(C)C(=O)N1C (stereo unspecified)	none (no result: p53 reactivator)
Nc1nnc(/C=C/c2cccc([N+](=O)[O-])c2)s1	BRCA1 expr up 16µM
O=C(c1ccc2ccccc2c1O)N1CCCCC1	none (no result: miR-21 FLuc, Anesthetic bind, p53 reactivator)
O=C(/C=C/C=C/c1ccc2c(c1)OCO2)N1CCCCC1	BRCA1 expr up 8.9µM (no result: miR-21 FLuc)
COc1ccc(NC(=O)N2CCN(S(=O)(=O)c3ccc4c(ccn4C)c3)CC2)c(OC)c1	none (no result: p53 reactivator)
O=C(c1ccc(-c2cccc(C(F)(F)F)c2)o1)N1CCOCC1	p53 reactivator inconclusive, BRCA1 expr up 11µM
NC(=O)C1CCN(CC(O)COCc2ccccc2Cl)CC1 (stereo unspecified)	none
COc1ccc(-c2cc(C(=O)N3CCCCC3C)no2)cc1OC (stereo unspecified)	none (no result: p53 reactivator, BRCA1 expr up)
CC1CCCCN1C(=O)c1cc(-c2ccc(Cl)c(Cl)c2)on1 (stereo unspecified)	Anesthetic bind inconclusive, p53 reactivator inconclusive, BRCA1 expr up 5.6µM
CCC1CCCCN1C(=O)c1cc(-c2ccc(Cl)c(Cl)c2)on1 (stereo unspecified)	p53 reactivator inconclusive, BRCA1 expr up 11µM
O=C(c1cc(-c2ccc(Cl)c(Cl)c2)on1)N1CCCCC1	p53 reactivator inconclusive, BRCA1 expr up 4µM
CC1CCCCN1C(=O)c1cc(-c2ccc3c(c2)OCO3)on1 (stereo unspecified)	p53 reactivator inconclusive, BRCA1 expr up inconclusive
COC(=O)c1c(-c2ccccc2)csc1N1C(=O)Nc2ccccc2N1O	BRCA1 expr up 7.9µM
Cc1ccc(NC(=O)Nc2ccc(F)cc2)cc1Cl	BRCA1 expr up 2.8µM
COc1cccc(NC(=O)Nc2ccc(C)c(Cl)c2)c1	BRCA1 expr up 7.1µM
COc1cccc(NC(=O)Nc2cccc(C)n2)c1	BRCA1 expr up 13µM
Cc1ccc(NC(=O)NC2CCCCC2)cc1Cl	BRCA1 expr up 5µM (no result: p53 reactivator)
Cc1cc(C)cc(C(=O)NCC(=O)NNC(=O)CSc2ccccc2F)c1	none (no result: miR-21 FLuc, Anesthetic bind)
CCCc1nnc(NC(=O)c2cc3ccccc3o2)s1	BRCA1 expr up 5µM
CCCc1nnc(NC(=O)c2cc3ccccc3oc2=O)s1	none
COCc1nnc(NC(=O)c2cc3ccccc3o2)s1	BRCA1 expr up 6.3µM
Cc1csc(NC(=O)c2cc3ccccc3o2)n1	p53 reactivator inconclusive (no result: miR-21 FLuc, Anesthetic bind)
Cc1ccc(C)c(NC(=S)NNC(=O)c2csc3c2CCC(C)C3)c1 (stereo unspecified)	Anesthetic bind 28µM
CCc1ccc(NC2=NCC(c3ccccc3)S2)cc1 (stereo unspecified)	BRCA1 expr up 11µM
Cc1cccc(N(C)C(=O)C2CCN(S(=O)(=O)c3cccc4nonc34)CC2)c1	none (no result: p53 reactivator, BRCA1 expr up)
Fc1cccc(Cl)c1CSc1nnc(COc2cccc3cccnc23)o1	Anesthetic bind 18µM
Cc1ccc(NC(=O)c2c(C)cc(C)nc2SCC(=O)Nc2ccc(Br)cc2)cc1	none (no result: p53 reactivator, BRCA1 expr up)
Cc1nn(-c2ccccc2)c(Cl)c1/C=N/NC(=O)c1ccc(CNc2ccccc2)o1	none
Cc1nn(-c2ccccc2)c(Cl)c1/C=N/NC(=O)c1ccco1	BRCA1 expr up 6.3µM
Cc1ccc(S(=O)(=O)n2nc(-c3ccc(Cl)cc3)nc2NCc2ccc(F)cc2)cc1	none (no result: p53 reactivator)
C#CCNC(=O)/C=C/c1ccc(OC)cc1	p53 reactivator inconclusive, BRCA1 expr up 13µM
COc1ccc(/C=C/C(=O)Nc2cc(C)on2)cc1	p53 reactivator inconclusive, BRCA1 expr up 4.5µM
Cc1cc(NC(=O)Nc2ccc(C)c(C)c2)no1	BRCA1 expr up 7.9µM
COc1cccc(NC(=O)Nc2cc(C)on2)c1	none
COc1cccc(C(=O)NC(=O)Nc2cc(C)on2)c1	BRCA1 expr up 7.9µM
NC(=O)c1cc(S(=O)(=O)NCC2CCC(C(=O)Nc3ccc(Cl)cc3)CC2)cs1 (stereo unspecified)	none (no result: p53 reactivator)
O=C(OCc1ccc([N+](=O)[O-])cc1Cl)c1cnccn1	none (no result: p53 reactivator)
CCOc1ccc(-c2cc3nc(C4CCN(C(=O)OC(C)(C)C)CC4)c(C(=O)Nc4cccc(Cl)c4C)cn3n2)cc1	none (no result: p53 reactivator, BRCA1 expr up)
COc1ccc(C(=O)/C=C/Nc2cccc(O)c2)cc1	p53 reactivator inconclusive
COc1ccc(/C=C/C(=O)NC(=S)N2CCN(c3ccccc3OC)CC2)cc1	BRCA1 expr up 4µM
COc1ccc(C(=O)/C=C/Nc2cc(C)on2)cc1	p53 reactivator inconclusive, BRCA1 expr up 3.2µM
COc1ccc(/C=C/C(=O)NC(=S)N2CCOCC2)cc1	p53 reactivator inconclusive
CCOc1ccc(N2CC(C)Cn3c2nc2c3c(=O)n(CC(=O)O)c(=O)n2C)cc1 (stereo unspecified)	none (no result: p53 reactivator)
Cc1cc(C)c2nc(N3CCC(C(=O)NCc4ccccn4)CC3)sc2c1	BRCA1 expr up 4µM
Cc1ccc(-n2c(=O)c3c(c4cc(C)ccc4n3C)n(CC(=O)NCc3ccccc3Cl)c2=O)cc1	none (no result: p53 reactivator, BRCA1 expr up)
CC(=O)Nc1ccc(NC(=O)COc2ccc(Br)cc2C)cc1	none
Cc1cccc(NC(=O)COc2ccc(Br)cc2/C=N/O)c1	p53 reactivator inconclusive, BRCA1 expr up 4.5µM
O=C(NCCCn1ccnc1)c1ccc(-c2cccc(Cl)c2Cl)o1	none (no result: miR-21 FLuc, Anesthetic bind)
O=C(CCC(=O)c1ccc(Cl)cc1)OCC(=O)c1ccccc1	Anesthetic bind 13µM
